Antibody variant affinities, Ab-14 light chain, assay 1

Binding partner: SARS-CoV-2 spike HR2 peptide, sequence PDVDLGDISGINAS.

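The starting antibody came from a phage panning campaign against this peptide. In library AAYL50, one, two or three CDR residues were substituted; doubles and triples were drawn at random. Affinity was read by AlphaSeq, a pooled yeast mating assay with surface-displayed partners. Mating (16 h, 30 °C) was followed by selection of diploids and sequencing of their barcodes. Each replicate has its own calibration line, from reference interactions of the BCL2 family. Each pool was mated in three replicate cultures.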

Ab-14 is the parent antibody, in scFv form: VH, then a 15-residue (Gly4Ser)3 linker, then VL. The heavy chain is unchanged in all variants.
VH: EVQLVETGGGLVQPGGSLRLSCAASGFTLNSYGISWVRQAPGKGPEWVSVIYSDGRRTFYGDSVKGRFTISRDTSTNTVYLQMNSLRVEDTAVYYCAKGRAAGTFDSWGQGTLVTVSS
VL: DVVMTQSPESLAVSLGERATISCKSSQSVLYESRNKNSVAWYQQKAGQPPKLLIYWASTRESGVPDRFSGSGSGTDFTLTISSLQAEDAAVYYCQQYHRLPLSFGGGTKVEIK

Substitutions are numbered in sequence along the VL above, starting at 1 (not Kabat). Kd is apparent (estimated from mating counts) and averaged on the log scale over replicates with a signal. Smaller is tighter. "nd" marks a missing value. The strain was present, yet no cells mated with the target were sequenced in any replicate, which points to weak or no binding. The list is sorted by this average, lowest first, undetected variants last. Empty control strains, which show no peptide, gave a signal in 18% of pairings with library AAYL50; the median was 15 µM and 95% of these signals were weaker than 970 nM. No background was subtracted.

{"changes": "V29G/L30P/E61H", "Kd": "7.3 nM", "detected": "3/3"}
{"changes": "E32T/T59C", "Kd": "27 nM", "detected": "3/3"}
{"changes": "V29S/K36N/L102Q", "Kd": "42 nM", "detected": "3/3"}
{"changes": "S26P/Q27M", "Kd": "84 nM", "detected": "3/3"}
{"changes": "N37P/Y97R/R99A", "Kd": "98 nM", "detected": "3/3"}
{"changes": "N35Y/K36W/A57E", "Kd": "670 nM", "detected": "1/3"}
{"changes": "S26P/N35L/L102C", "Kd": "690 nM", "detected": "3/3"}
{"changes": "R34L/S38L/Q96T", "Kd": "3.4 µM", "detected": "1/3"}
{"changes": "Y31E/V39N", "Kd": "4.4 µM", "detected": "1/3"}
{"changes": "Y31Q/A57N/S58H", "Kd": "10 µM", "detected": "1/3"}
{"changes": "N35R/A57R", "Kd": "10 µM", "detected": "1/3"}
{"changes": "K24L/N37H/A40M", "Kd": "10 µM", "detected": "1/3"}
{"changes": "Y31G/R60W/Y97I", "Kd": "990 µM", "detected": "1/3"}
{"changes": "K24G/S25D/P101H", "Kd": "nd", "detected": "0/3"}
{"changes": "R34E/R99A/P101N", "Kd": "nd", "detected": "0/3"}
{"changes": "K24N/R99N/L100E", "Kd": "nd", "detected": "0/3"}
{"changes": "Y31N/Q95N/Y97N", "Kd": "nd", "detected": "0/3"}
{"changes": "A40I/T59W/L102N", "Kd": "nd", "detected": "0/3"}
{"changes": "E32M/V39R/Q96F", "Kd": "nd", "detected": "0/3"}
{"changes": "S28K/L30G/H98S", "Kd": "nd", "detected": "0/3"}
{"changes": "K24C/Y97N/L102P", "Kd": "nd", "detected": "0/3"}

Reference: Engelhart et al. 2022, doi:10.1038/s41597-022-01779-4. File: FLAb, binding data.